Reference: PubChem BioAssay (NCI)
Some results for these compounds are left out of this collection, so the calls shown say nothing about other tests.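 Step 1: Grow cells in 96-well plates. Step 2: Expose to compound for 48 hours at 5 concentrations. Step 3: Interpolate endpoints linearly; if unreached, use highest concentration. GI50 is the concentration that inhibits growth by half. Definition used: TGI = concentration required for complete inhibition of growth.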

Key:
Experiment in all cases: NCI-60 cell line screen, 48 h
786-0 renal = tested on: 786-0 renal
A549 NSCLC = tested on: A549 NSCLC
ACHN renal = tested on: ACHN renal
BT-549 breast = tested on: BT-549 breast
CAKI-1 renal = tested on: CAKI-1 renal
CCRF-CEM leukemia = tested on: CCRF-CEM leukemia
COLO 205 colon = tested on: COLO 205 colon
DU-145 prostate = tested on: DU-145 prostate
EKVX NSCLC = tested on: EKVX NSCLC
HCC-2998 colon = tested on: HCC-2998 colon
HCT-116 colon = tested on: HCT-116 colon
HCT-15 colon = tested on: HCT-15 colon
HL-60(TB) leukemia = tested on: HL-60(TB) leukemia
HOP-62 NSCLC = tested on: HOP-62 NSCLC
HS 578T breast = tested on: HS 578T breast
HT29 colon = tested on: HT29 colon
IGROV1 ovarian = tested on: IGROV1 ovarian
K-562 leukemia = tested on: K-562 leukemia
KM12 colon = tested on: KM12 colon
LOX IMVI melanoma = tested on: LOX IMVI melanoma
M14 melanoma = tested on: M14 melanoma
MALME-3M melanoma = tested on: MALME-3M melanoma
MDA-MB-231 breast = tested on: MDA-MB-231 breast
MDA-MB-435 = tested on: MDA-MB-435
MDA-N = tested on: MDA-N
MOLT-4 leukemia = tested on: MOLT-4 leukemia
NCI-H226 lung = tested on: NCI-H226 lung
NCI-H23 lung = tested on: NCI-H23 lung

SMILES: CCCC#CC(O)(C(=O)OC1CN2CCC1CC2)C1CCCCC1 (stereo not given)
- GI50 (786-0 renal): > 100 µM
- TGI (786-0 renal): > 100 µM
- GI50 (A549 NSCLC): > 100 µM
- TGI (A549 NSCLC): > 100 µM
- GI50 (ACHN renal): > 100 µM
- TGI (ACHN renal): > 100 µM
- GI50 (BT-549 breast): > 100 µM
- TGI (BT-549 breast): > 100 µM
- GI50 (CAKI-1 renal): 25.8 µM
- TGI (CAKI-1 renal): 82.2 µM
- GI50 (CCRF-CEM leukemia): > 100 µM
- TGI (CCRF-CEM leukemia): > 100 µM
- GI50 (COLO 205 colon): > 100 µM
- TGI (COLO 205 colon): > 100 µM
- GI50 (DU-145 prostate): > 100 µM
- TGI (DU-145 prostate): > 100 µM
- GI50 (EKVX NSCLC): > 100 µM
- TGI (EKVX NSCLC): > 100 µM
- GI50 (HCC-2998 colon): > 100 µM
- TGI (HCC-2998 colon): > 100 µM
- GI50 (HCT-116 colon): > 100 µM
- TGI (HCT-116 colon): > 100 µM
- GI50 (HCT-15 colon): > 100 µM
- TGI (HCT-15 colon): > 100 µM
- GI50 (HL-60(TB) leukemia): > 100 µM
- TGI (HL-60(TB) leukemia): > 100 µM
- GI50 (HOP-62 NSCLC): > 100 µM
- TGI (HOP-62 NSCLC): > 100 µM
- GI50 (HS 578T breast): > 100 µM
- TGI (HS 578T breast): > 100 µM
- GI50 (HT29 colon): 40.3 µM
- TGI (HT29 colon): > 100 µM
- GI50 (IGROV1 ovarian): > 100 µM
- TGI (IGROV1 ovarian): > 100 µM
- GI50 (K-562 leukemia): > 100 µM
- TGI (K-562 leukemia): > 100 µM
- GI50 (KM12 colon): > 100 µM
- TGI (KM12 colon): > 100 µM
- GI50 (LOX IMVI melanoma): > 100 µM
- TGI (LOX IMVI melanoma): > 100 µM
- GI50 (M14 melanoma): > 100 µM
- TGI (M14 melanoma): > 100 µM
- GI50 (MALME-3M melanoma): > 100 µM
- TGI (MALME-3M melanoma): > 100 µM
- GI50 (MDA-MB-231 breast): > 100 µM
- TGI (MDA-MB-231 breast): > 100 µM
- GI50 (MDA-MB-435): > 100 µM
- TGI (MDA-MB-435): > 100 µM
- GI50 (MDA-N): > 100 µM
- TGI (MDA-N): > 100 µM
- GI50 (MOLT-4 leukemia): 53.8 µM
- TGI (MOLT-4 leukemia): > 100 µM
- GI50 (NCI-H226 lung): > 100 µM
- TGI (NCI-H226 lung): > 100 µM
- GI50 (NCI-H23 lung): > 100 µM
